Measurements published in patent US20240115500A1, “POLYMERIC MICELLE COMPLEXES OF MRNA OR ZWITTERIONIC AGENTS, AND FORMULATIONS AND USES THEREOF” (Aravasc Inc., priority 2020, published 2024).

Test: Agarose gel electrophoresis of protein + PBC formulations at defined w/w ratios (Example 2)
Conditions: polymer:protein ratio 15:1; FIG. 2A-2D

For “Interleukin-2: interleukin protein tested for complexation with PBC”, the “complexation with the polymer (agarose gel)” value was “significantly complex”.
